According to patent publication US20150045291A1, “LIPOPEPTIDE CONJUGATES COMPRISING SPHINGOLIPID AND HIV GP41 DERIVED PEPTIDES” (priority 2012, published 2015):
Starred links: 1 amine or outer side, 2 acyl side, 3 side chain; linkers in the order of their positions; H or OH if unused. Residues, ends and D or L forms follow the SMILES beside them. *: point of attachment. Sphinganine = CCCCCCCCCCCCCCC[C@@H](O)[C@H](CO)N*; CO = O=C([*:1])[*:2]

Tested on: fully infectious HIV-1 HXB2
Test: Washing experiment: peptides pre-incubated with TZM-bl cells, washed, then HXB2 virus added
Details: 1 hour pre-incubation with TZM-bl cells, three washes

Row | Molecule | Fold increase in IC50 following cell washing, (IC50 1)/(IC50 2) [fold]
1 | CCCCCCCCCCCCCCC[C@@H](O)[C@H](CO)NC(=O)N[C@@H](CC(C)C)C(=O)N[C@@H](CC(C)C)C(=O)N[C@@H](CCC(N)=O)C(=O)N[C@@H](CC(C)C)C(=O)N[C@H](C(=O)N[C@H](C(=O)N[C@@H](Cc1c[nH]c2ccccc12)C(=O)NCC(=O)N[C@H](C(=O)N[C@@H](CCCCN)C(=O)N[C@@H](CCC(N)=O)C(=O)N[C@@H](CC(C)C)C(=O)N[C@@H](CCC(N)=O)C(=O)N[C@@H](C)C(=O)N[C@@H](CCCNC(=N)N)C(=O)N[C@H](C(=O)N[C@@H](CC(C)C)C(N)=O)[C@@H](C)CC)[C@@H](C)CC)C(C)C)[C@@H](C)O [Sphinganine-N17, Sphinganine-LLQLTVWGIKQLQARIL] ({Sphinganine-CO}-LLQLTVWGIKQLQARIL-NH2) | 5
2 | enfuvirtide | 36
